Measured values from patent US11447505B1, “Pyrrolo[2,3-b]pyridine compounds and their use in the treatment of cancer” (priority 2017, dated 2022).

Protein sequences, listed by entry. Tags and fused reporters are not part of them.
UniProt Q9Y5S2, whole entry: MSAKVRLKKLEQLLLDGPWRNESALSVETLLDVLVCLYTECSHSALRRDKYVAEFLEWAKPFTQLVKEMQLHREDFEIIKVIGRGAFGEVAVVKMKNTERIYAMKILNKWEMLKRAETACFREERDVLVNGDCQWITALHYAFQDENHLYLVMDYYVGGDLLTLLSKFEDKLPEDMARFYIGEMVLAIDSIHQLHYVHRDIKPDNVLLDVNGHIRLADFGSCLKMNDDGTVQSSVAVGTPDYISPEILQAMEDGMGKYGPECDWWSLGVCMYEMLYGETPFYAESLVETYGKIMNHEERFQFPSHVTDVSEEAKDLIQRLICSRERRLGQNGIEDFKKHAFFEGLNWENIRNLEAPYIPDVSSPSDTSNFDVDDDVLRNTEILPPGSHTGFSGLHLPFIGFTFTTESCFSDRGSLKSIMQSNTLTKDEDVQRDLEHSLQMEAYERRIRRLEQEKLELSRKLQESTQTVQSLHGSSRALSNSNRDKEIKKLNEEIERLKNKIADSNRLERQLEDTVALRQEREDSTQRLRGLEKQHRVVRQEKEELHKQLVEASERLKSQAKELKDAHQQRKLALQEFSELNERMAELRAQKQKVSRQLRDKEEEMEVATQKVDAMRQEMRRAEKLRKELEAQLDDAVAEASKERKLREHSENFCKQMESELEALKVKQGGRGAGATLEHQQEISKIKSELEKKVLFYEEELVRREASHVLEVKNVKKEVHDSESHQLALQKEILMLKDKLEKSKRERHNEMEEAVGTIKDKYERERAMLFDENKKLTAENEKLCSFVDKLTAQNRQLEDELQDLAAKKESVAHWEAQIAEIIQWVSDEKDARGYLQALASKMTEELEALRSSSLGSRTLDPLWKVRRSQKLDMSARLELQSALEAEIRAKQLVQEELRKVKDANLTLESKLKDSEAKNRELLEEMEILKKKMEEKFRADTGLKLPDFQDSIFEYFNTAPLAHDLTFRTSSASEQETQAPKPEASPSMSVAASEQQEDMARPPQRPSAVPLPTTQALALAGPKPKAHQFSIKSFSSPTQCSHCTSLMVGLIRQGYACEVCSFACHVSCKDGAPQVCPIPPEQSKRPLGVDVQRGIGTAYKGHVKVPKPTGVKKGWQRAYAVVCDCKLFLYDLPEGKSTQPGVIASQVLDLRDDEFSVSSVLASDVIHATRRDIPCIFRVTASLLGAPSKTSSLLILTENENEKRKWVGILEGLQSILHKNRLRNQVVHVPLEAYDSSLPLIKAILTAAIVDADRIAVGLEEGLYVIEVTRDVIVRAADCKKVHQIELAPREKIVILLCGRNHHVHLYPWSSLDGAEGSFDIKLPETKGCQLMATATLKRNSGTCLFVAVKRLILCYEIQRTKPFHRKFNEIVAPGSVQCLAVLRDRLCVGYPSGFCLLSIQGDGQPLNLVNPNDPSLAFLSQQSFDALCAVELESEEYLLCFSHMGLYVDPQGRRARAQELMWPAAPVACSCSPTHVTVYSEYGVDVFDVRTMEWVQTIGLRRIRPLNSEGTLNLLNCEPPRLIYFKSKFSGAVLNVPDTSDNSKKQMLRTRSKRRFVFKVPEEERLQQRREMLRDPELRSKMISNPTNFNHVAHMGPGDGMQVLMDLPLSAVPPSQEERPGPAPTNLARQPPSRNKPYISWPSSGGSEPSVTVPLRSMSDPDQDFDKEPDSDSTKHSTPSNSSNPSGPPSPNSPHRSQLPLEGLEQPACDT

Molecular target: MRCKβ (Homo sapiens (Human), UniProt Q9Y5S2)
Assay: MRCKβ kinase assay (IMAP fluorescence polarization)
Type: biochemical
Settings: read-out: MRCK-B Average Ki; 1 μM ATP

How did the Ki turn out when CNC(=O)C1CCN(c2ccnc3[nH]cc(-c4cncnc4)c23)CC1 was run?
The Ki was 20.9 nM.
